We go through one molecule from BindingDB's records for PubMed 2867217 (Smith Kline & French Laboratories, 1986).

The target in the assay is T1, Alpha-1A adrenergic receptor (Rattus norvegicus, UniProt P43140).
T1 sequence (P43140 whole entry): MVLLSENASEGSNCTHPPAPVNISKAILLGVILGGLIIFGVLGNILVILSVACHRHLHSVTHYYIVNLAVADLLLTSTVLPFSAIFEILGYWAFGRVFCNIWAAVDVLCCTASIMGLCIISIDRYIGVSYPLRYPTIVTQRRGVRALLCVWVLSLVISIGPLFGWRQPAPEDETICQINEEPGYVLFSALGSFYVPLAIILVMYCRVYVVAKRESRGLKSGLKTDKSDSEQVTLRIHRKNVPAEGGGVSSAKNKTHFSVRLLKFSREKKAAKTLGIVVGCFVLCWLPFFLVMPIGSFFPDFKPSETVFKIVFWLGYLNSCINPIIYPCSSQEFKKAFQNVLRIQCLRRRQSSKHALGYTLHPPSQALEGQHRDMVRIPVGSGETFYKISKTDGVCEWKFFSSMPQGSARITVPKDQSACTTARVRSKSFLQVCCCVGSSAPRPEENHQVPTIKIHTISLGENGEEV

Values joined by “and” are separate entries in the source; they are usually repeats but may differ in a detail not shown here. Equal values may be shown once.

As usually defined, the Ki is the dissociation constant of the complex between target and ligand, obtained from inhibition or displacement. A low value points to tighter binding. With `COC(=O)[C@@H]1[C@H]2C[C@H]3c4[nH]c5ccccc5c4CCN3C[C@@H]2CC[C@@H]1O` [yohimbic acid methyl ester], the Ki is 562 nM and 263 nM.
